Results on one molecule are retold here after ChEMBL document CHEMBL5528042, “Identification of Novel, Selective Ataxia-Telangiectasia Mutated Kinase Inhibitors with the Ability to Penetrate the Blood-Brain Barrier: The Discovery of AZD1390” (J Med Chem, 2024).

The target of assay [1] is Serine/threonine-protein kinase mTOR (Homo sapiens, UniProt P42345). Description: Inhibition of mTOR in human MDA-MB-468 cells incubated for 2.5 hrs by Alexa Fluor 488 staining based fluorescence analysis. It counts as cell-based.
The target of assay [2] is DNA-dependent protein kinase catalytic subunit (Homo sapiens, UniProt P78527). Nature of the assay: Inhibition of DNA-PK (unknown origin).

`CN(C)CCCOc1ccc(-c2ccc3ncc4c(c3c2)n(C2CCOCC2)c(=O)n4C)cn1`: the midpoint of inhibition in assay [1], the IC50, lay at 1260 nM. Further, the negative-log IC50 (pIC50) in assay [2] came to 5.3.

As usually defined, the IC50 is the concentration that inhibits the measured activity by half. Lower therefore signals greater potency in that assay. Usually pIC50 stands for the IC50 on a negative log10 scale, so that one unit is a factor of ten. A lower pIC50 goes with a large IC50.
